Source: patent US11771779B2, “Non-metallic magnetic resonance contrast agent” (HADASIT MEDICAL RESEARCH SERVICES & DEVELOPMENT LIMITED, priority 2018, dated 2023)
Entries after “also recorded” stand apart in the source; their conditions may differ. Read-outs that look alike come from different tables or passages of the source.

Conditions: whole human blood/saline, hyperpolarized signal monitored 4 min, 32-36° C.
Description: The small amounts of hyperpolarized solution were added to the blood sample at 0, 3, 6, 7.25, and 9.17 min from arrival of the solution to the collection tube.

In the case of `O=[15N+]([O-])[O-].[Na+]` [[^15N]nitrate, sodium [^15N]nitrate], the “stability in blood (conversion to [^15N]nitrite)” value is reported as “only the [^15N]nitrate signal was detected; also recorded: not significantly metabolized” and the “stability in blood (conversion to [^15N]nitrite)” value (listed as nitrate) is reported as “not affected by the contact with the blood components; also recorded: could not detect any metabolism of nitrate to nitrite”.
